This passage reports IC50 results from ChEMBL document CHEMBL1949498, “Nonquaternary reactivators for organophosphate-inhibited cholinesterases” (2012).

Protein sequences, listed by entry. Tags and fused reporters are not part of them. Residues count along the entry.
UniProt P06276, 29-602 limits assumed: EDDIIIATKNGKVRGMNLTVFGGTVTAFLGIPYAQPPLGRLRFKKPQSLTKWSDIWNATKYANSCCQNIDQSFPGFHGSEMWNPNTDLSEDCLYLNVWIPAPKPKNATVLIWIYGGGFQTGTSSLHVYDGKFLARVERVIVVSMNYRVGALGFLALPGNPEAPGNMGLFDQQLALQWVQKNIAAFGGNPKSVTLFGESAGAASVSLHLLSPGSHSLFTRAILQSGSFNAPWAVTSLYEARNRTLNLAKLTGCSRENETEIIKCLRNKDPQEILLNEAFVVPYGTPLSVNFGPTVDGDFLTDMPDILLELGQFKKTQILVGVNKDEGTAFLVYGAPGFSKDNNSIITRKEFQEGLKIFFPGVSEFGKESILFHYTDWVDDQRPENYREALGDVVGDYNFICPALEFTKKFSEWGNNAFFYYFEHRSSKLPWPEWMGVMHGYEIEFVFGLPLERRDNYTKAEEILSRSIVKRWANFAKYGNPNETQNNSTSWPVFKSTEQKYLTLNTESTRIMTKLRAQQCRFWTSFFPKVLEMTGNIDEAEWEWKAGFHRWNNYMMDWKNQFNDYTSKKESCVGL
UniProt P22303, 32-614 limits assumed: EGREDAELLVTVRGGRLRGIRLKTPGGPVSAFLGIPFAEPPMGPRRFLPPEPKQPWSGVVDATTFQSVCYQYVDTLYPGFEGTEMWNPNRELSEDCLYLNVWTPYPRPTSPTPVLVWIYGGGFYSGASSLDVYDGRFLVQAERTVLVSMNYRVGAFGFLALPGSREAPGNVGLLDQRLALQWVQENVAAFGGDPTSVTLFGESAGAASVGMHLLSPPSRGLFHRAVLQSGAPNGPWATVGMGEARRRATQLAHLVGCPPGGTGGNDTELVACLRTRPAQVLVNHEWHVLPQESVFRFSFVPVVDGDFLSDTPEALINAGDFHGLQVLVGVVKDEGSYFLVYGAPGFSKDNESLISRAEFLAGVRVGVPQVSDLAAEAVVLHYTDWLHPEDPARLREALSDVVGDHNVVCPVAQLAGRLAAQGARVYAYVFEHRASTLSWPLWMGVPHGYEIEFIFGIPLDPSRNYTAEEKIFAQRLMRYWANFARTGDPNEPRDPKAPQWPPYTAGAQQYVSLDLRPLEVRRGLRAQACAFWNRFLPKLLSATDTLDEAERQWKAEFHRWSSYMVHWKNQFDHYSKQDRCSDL

As usually defined, the IC50 is the concentration that inhibits the measured activity by half.

One experiment has as its target Cholinesterase (Homo sapiens, UniProt P06276). As to the kind of experiment: Inhibition of human recombinant BChE using butyrylthiocholine as substrate after 20 mins by Ellman method.
For a further experiment, the target named is Acetylcholinesterase (Homo sapiens, UniProt P22303). As to the kind of experiment: Inhibition of human recombinant AChE using acetylthiocholine as substrate after 1 hr by Ellman method. (DTNB colorimetry detects thiols as they appear.)

Each structure is given as a SMILES string.

Turning to `O/N=C/C1=NCCCN1Cc1ccc(Cl)cc1Cl`, the IC50 was 6.3 µM on Cholinesterase and 9 µM on Acetylcholinesterase.

In the case of `CC(C)CC/N=C(/C=N/O)N(C)C`, the IC50 on Cholinesterase is 66 µM; on Acetylcholinesterase it was 17 µM. `O/N=C/C1=NCCCN1Cc1cc(C(F)(F)F)cc(C(F)(F)F)c1`: at Acetylcholinesterase, the IC50 turned out to be 45 µM. For the compound `O/N=C/C1=NCCN1Cc1ccc(Cl)cc1Cl`, the IC50 on Cholinesterase was 3.9 µM; at Acetylcholinesterase, 24 µM. The corresponding values for `O/N=C/C1=NCCN1Cc1ccccc1` are 10 µM and 44 µM.

Regarding `CCCCCN1CC(C)(C)CN=C1/C=N/O`, the IC50 on Cholinesterase is 68 µM; at Acetylcholinesterase, 89 µM. The corresponding values for `O/N=C/C1=NCCCN1Cc1ccccc1` are 11 µM and 28 µM. For `CCCCN1CC(C)(C)CN=C1/C=N/O`, at Acetylcholinesterase, the half-maximal inhibitory concentration (IC50) was 93 µM. Consider `CCCCC/N=C(/C=N/O)N(C)C`, for which, at Acetylcholinesterase, the half-inhibitory concentration (IC50) was 13 µM.

Consider `CCCCCN1CCCN=C1/C=N/O`, for which, at Acetylcholinesterase, the IC50 was 21 µM. For the compound `O/N=C/C1=NCCN1Cc1cc(C(F)(F)F)cc(C(F)(F)F)c1`, at Acetylcholinesterase, the IC50 came to 85 µM.
